Test results published in PMC9776540, “Therapeutic Potential of a Water-Soluble Silver-Diclofenac Coordination Polymer on 3D Pancreatic Cancer Spheroids” (Journal of Medicinal Chemistry, 2022).

Tested on: PANC-1 cells
Conditions: PANC-1, 1 at IC50, others at molar ratio 1:1:1, 72 h after treatment
Protocol: MCF7 cell line (human breast adenocarcinoma, morphology: epithelial-like, ATCC: HTB-22), A549 cell […]
keratinocyte, morphology: epidermal, CSL Cell Lines Service GmbH); were cultured in Dulbecco’s Modified Eagle’s Medium (DMEM, Corning) with phenol red, supplemented with 10% fetal bovine serum (FBS) and with 1% streptomycin/penicillin. […]
from metastatic site: brain, ATCC: HTB-81) and MCR-5 cell line (primary line of human pulmonary […]
10% fetal bovine serum (FBS). Cultures were incubated at 37 °C under a humidified atmosphere containing 5% CO2. Cells were transferred using a solution containing 0.05% trypsin and 0.5 mM EDTA.
All media and other ingredients were purchased from ALAB, Poland. […]
Acridine Orange (OA) and Propidium Iodide PI Staining
AO is a nucleic acid-binding fluorophore that is cell membrane permeable and suitable for selective staining of nucleated living cells. PI is a nucleic acid-binding dye that is impermeable to live cells and suitable for staining dead or dying nucleated cells. All live, nucleated cells fluoresce green due to AO, and dead, nucleated cells are stained with both AO and PI and fluoresce red. For analysis of 1-induced

## O=[N+]([O-])[O-].[Ag+] [AgNO3, silver(I) nitrate]
  cytotoxicity seen by AO/PI staining: moderate cytotoxic effect
